Laboratory results taken from US20210179940A1, “WIDE TEMPERATURE RANGE AND HIGH PHOTOCHEMICAL STABILITY SMECTIC LIQUID CRYSTAL COMPOSITIONS WITH A MONOLAYER SMECTIC A PHASE (SMA1), METHOD OF OBTAINING THEREOF AND DEVICES UTILIZING THEREOF” (WOJSKOWA AKADEMIA TECHNICZNA, priority 2017, published 2021).

Experiment: solubility of ionic compounds in fluorobenzene
Conditions: 25° C.
Description: Fluorobenzene was used as solvent because it is chemically similar to the liquid crystalline composition used here.
The examination was made in the following way: always the same mole amount of a ionic compound (0.00004 mol) was placed in 2 cm^3 of fluorobenzene. The mixture was mixed to dissolve the compound or to obtain equilibrium between the saturated solution and the solid. When a part of the compound was dissolved only, the sample of the saturated solution was taken (0.5 ml). The solvent was evaporated to dryness, the rest was weighted. Knowing the residue amount, the solubility was calculated.

Substance	solubility in C6H5F [mol/dcm^3]
complex of 18-crown-6 ether with potassium bromide [IIIb]	0.0104
complex of dibenzo-18-crown-6 ether with potassium bromide [IVb]	0.0042
